From PubChem BioAssay AID819 (Columbia University Molecular Screening Center, 2007)
The entries are a selection whose mix differs from that of the whole data set. The source made the active and inactive calls.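 How the source made its calls: active means activation above 40%, about the mean plus 3 SD, also judged a hit on visual image review; inconclusive means activation above 40% but not a hit on visual review; inactive means activation not above 40% and no visual hit.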

experiment: enhancers of NFkB p65 translocation in HUVEC – imaging, IL-1B stimulus, high-content imaging, primary screen (AID 819); details: HUVEC IL-1B NFkB p65 nuclear translocation imaging; at 2 µM; stronger effect = higher value;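 further: percent activation is computed from the nuclear over cytoplasmic p65 intensity ratio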

SMILES | activation
Cc1nn(-c2ccccc2)c2c1P(=O)(N1CCOCC1)N(C)C(c1ccccc1)=N2 (stereo unspecified) | inactive: 17.8%
COc1ccccc1OP(C)(=O)Nc1c(C)cccc1C (stereo unspecified) | inactive: -1.34%
O=P1(Nc2ncccn2)COc2ccccc2OC1 | inactive: 5.46%
Cc1ccc(OCC(=O)OC2CN3CCC2CC3)cc1 (stereo unspecified) | inactive: 1.42%
O=P1(Nc2ccc(Br)cn2)COc2ccccc2OC1 | inactive: 3.48%
O=P1(Nc2ccccn2)COc2ccccc2OC1 | inactive: 15.9%
Clc1n[nH]nc1-c1nn[nH][15n]1 | inactive: -0.84%
Cc1nc2ccc3ccccc3c2s1.O=[N+]([O-])c1cc([N+](=O)[O-])c(O)c([N+](=O)[O-])c1 | inactive: -4.34%
CC1(CBr)Cn2c(nc3ccccc3c2=O)S1 (stereo unspecified) | inactive: -7.47%
Cc1cccc(OCC(=O)OC2CN3CCC2CC3)c1 (stereo unspecified) | inactive: 22.3%
Cc1cc(C)cc(OP(C)(=O)Nc2ccccn2)c1 (stereo unspecified) | inactive: -22.4%
Cc1ccc(C)c(NP(C)(=O)Oc2ccccc2)c1 (stereo unspecified) | inactive: 18%
CCOP1(=S)c2c(C)nn(CCC#N)c2N=C(c2ccccc2F)N1C (stereo unspecified) | inactive: 2.5%
CCOP1(=S)c2c(C)nn(CCC#N)c2N=C(c2ccc(F)cc2)N1C (stereo unspecified) | inactive: 1.03%
O=[N+]([O-])c1ccc2c(c1)nnn2O | inactive: 0.17%
ClCCSc1nnc(-c2cccnc2)o1 | inactive: -10.5%
COc1ccc(OP(C)(=O)Nc2cccc(F)c2)cc1 (stereo unspecified) | inactive: 10.8%
CCN(CC)C(=S)SC(NC=O)C(Cl)(Cl)Cl (stereo unspecified) | inactive: -0.59%
O=C(OC1CN2CCC1CC2)C12CC3CC(CC(C3)C1)C2 (stereo unspecified) | inactive: 19.3%
COP1(=S)c2c(C)nn(CCC#N)c2N=C(c2ccc(F)cc2)N1C (stereo unspecified) | inactive: -5.21%
CP(=O)(NC(=O)Nc1ccccc1)Oc1ccccc1 (stereo unspecified) | inactive: 2.71%

SMILES | activation
O=C(COc1ccccc1)OC1CN2CCC1CC2 (stereo unspecified) | inactive: -7.22%
CCC(C)N(CC(C)C)C(=S)SC(NC(C)=O)C(Cl)(Cl)Cl (stereo unspecified) | inactive: 4.89%
CP(=O)(Nc1ccccn1)Oc1ccc(Cl)cc1 (stereo unspecified) | inactive: 4.32%
CP(=S)(Nn1cnnc1)Oc1ccccc1 (stereo unspecified) | inactive: 8.13%
CP(=O)(OC12CC3CC(CC(C3)C1)C2)OC12CC3CC(CC(C3)C1)C2 | inactive: 20.3%
CCN(CC)CC(O)COC(=O)C(O)(c1ccccc1)C1CCCCC1 (stereo unspecified) | inactive: -1.37%
CCc1nc2c(n1)c1c(non1O)c1c2no[n+]1[O-] | inactive: 13.2%
CP(=O)(Oc1ccccc1)N1CCOC1=O (stereo unspecified) | inactive: -6.28%
CC(=O)N1C2C3N(C(C)=O)C1C1N(C(C)=O)C(C(N1C(C)=O)N3C(C)=O)N2C(C)=O | inactive: -0.5%
O=[N+]([O-])c1cccc2n[nH]nc12 | inactive: -0.26%
COc1ccccc1OP(C)(=O)Nc1c(C)n(C)n(-c2ccccc2)c1=O (stereo unspecified) | inactive: 23.1%
CP(=O)(Nc1ccc(Cl)cc1)Oc1ccc(F)cc1 (stereo unspecified) | inactive: 20.9%
CC(C)(C)c1ccc(OP(C)(=O)O)cc1 | inactive: 3.7%
CC1CCN(C(=O)Oc2c(Cl)cc(Cl)c3cccnc23)CC1 | inactive: 3.49%
CN1CCCC(OC(=O)C(c2ccccc2)c2ccccc2)C1 (stereo unspecified) | inactive: -7.83%
CN(C)CCOC(=O)C(O)(c1ccccc1)C1CCCC1 (stereo unspecified) | inactive: 5.91%
COc1ccc(OP(C)(=O)Nc2ccccn2)cc1 (stereo unspecified) | inactive: 15.8%
Cc1c2non([O-])c-2c(C)[n+](=O)[n+]1[O-] | inactive: 16.9%
Oc1ccccc1CNc1ccccn1 | inactive: 8.93%
Cc1c(NP(C)(=O)Oc2ccc(C(C)C)cc2)c(=O)n(-c2ccccc2)n1C (stereo unspecified) | inactive: -3.62%
CC(C)CC(=O)NC(Sc1ccc(Cl)cc1)C(Cl)(Cl)Cl (stereo unspecified) | inactive: 4.25%

SMILES | activation
CCc1ccc(OP(C)(=O)O)cc1 | inactive: 0.99%
COc1ccccc1OP(C)(=O)Nc1ccc(C)cc1C (stereo unspecified) | inactive: -2.48%
CP(=O)(Nc1ccccn1)Oc1ccccc1 (stereo unspecified) | inactive: 2.76%
COc1ccccc1OP(C)(=O)Nc1ccc(C)c(C)c1 (stereo unspecified) | inactive: 2.05%
CCOP(=O)(Nc1ccccc1)OCC | inactive: 3.56%
Cc1nc2ccc3ccccc3c2o1.O=[N+]([O-])c1cc([N+](=O)[O-])c(O)c([N+](=O)[O-])c1 | active: 41.7%
CCOC(=O)NC(Sc1ccccc1)C(Cl)(Cl)Cl (stereo unspecified) | inactive: -10.2%
CCC(=O)N1C2C3N(C(=O)CC)C1C1N(C(=O)CC)C(C(N1C(=O)CC)N3C(=O)CC)N2C(=O)CC | inactive: 22.5%
CCN(CC)CCCOC(=O)C(O)(c1ccccc1)C1CCCCC1 (stereo unspecified) | inactive: 10.1%
COC(=O)c1cc2c(s1)N=C(c1ccccc1)N(C)P2(=O)N1CCOCC1 (stereo unspecified) | inactive: -7.28%
CP(=O)(Nc1ccccc1)Oc1ccc(F)cc1 (stereo unspecified) | inactive: 17.6%
O=P1(Nc2nc3ccc(Cl)cc3s2)COc2ccccc2O1 (stereo unspecified) | inactive: 17.7%
CP(=O)(Nc1ccccc1F)Oc1ccccc1 (stereo unspecified) | inactive: -9.73%
O=P(Nc1nccs1)(c1ccccc1)c1ccccc1 | inactive: 6.76%
c1nnnn1CCn1cnnn1 | inactive: -4.68%
CCOP(C)(=S)SCC(=O)NC(C)(CC)C(=O)O (stereo unspecified) | inactive: -0.3%
CP(=O)(Nc1ccc2c(c1)OCCO2)Oc1ccccc1 (stereo unspecified) | inactive: 33.2%
CN(C)CCOC(=O)C(O)(c1ccccc1)C1CCCCC1 (stereo unspecified) | inactive: -0.97%
O=C(OC1CN2CCC1CC2)c1cccc(Cl)c1 (stereo unspecified) | inactive: -11.7%
